Patent publication US8552041B2, “Therapeutic approaches for treating alzheimer disease and related disorders through a modulation of cell stress response” (Pharnext, priority 2008, dated 2013)

System: Human Brain Microvascular Endothelial Cells (HBMEC)
Test: Capillary network length in human Aβ1-42 intoxicated HBMEC on matrigel
Assay type: cell-based
Conditions: 1 hr pre-treatment, VEGF 10 nM, FIG. 3A
Protocol: Human brain microvascular endothelial cerebral cells (HBMEC, ScienCell Ref: 1000, frozen at passage 10) were rapidly thawed in a waterbath at +37° C. The supernatant was immediately put in 9 ml Dulbecco's modified Eagle's medium (DMEM; Pan Biotech ref: P04-03600) containing 10% of foetal calf serum (FCS; GIBCO ref 10270-106). […]
The following conditions were assessed: • Negative Control: medium alone+0.1% DMSO • Intoxication: amyloid-β1-42 (2.5 μM) for 18 h • Positive control: VEGF-165 (10 nM) (1 reference compound/culture) 1 hr before the Aβ1-42 (2.5 μM) addition for a 18 h incubation time. • Test compounds: Test compound I hr before the Aβ1-42 (2.5 μM) addition for a 18 h incubation time. Capillary Network Quantification
Per well, 2 pictures with 4× lens were taken using InCell Analyzer™ 1000 (GE Healthcare) in light transmission. […] The total length of capillary network was assessed.
All values are expressed as mean±s.e.mean of the 3 cultures (n=6 per condition). […] Indeed, the amyloid toxicity was taken as the 100% and the test compound effect was calculated as a % of this amyloid toxicity. […]

## VEGF
  Capillary network compared to amyloid intoxication: +78%
